Data set [1] deals with T1, Amine oxidase [flavin-containing] B (Homo sapiens, UniProt P27338). In words: Competitive inhibition of human recombinant MAO-B expressed in baculovirus infected BTI-TN-5B1-4 insect cells using p-tyramine as substrate by Lineweaver-Burk plot analysis.
Data set [2] addresses T1, Amine oxidase [flavin-containing] B. In words: Competitive inhibition of human recombinant MAO-B expressed in baculovirus infected BTI-TN-5B1-4 insect cells using p-tyramine as substrate by Dixon- plot analysis.

Chains of the proteins cited; added tags and fusions are not shown.
UniProt P27338, whole entry: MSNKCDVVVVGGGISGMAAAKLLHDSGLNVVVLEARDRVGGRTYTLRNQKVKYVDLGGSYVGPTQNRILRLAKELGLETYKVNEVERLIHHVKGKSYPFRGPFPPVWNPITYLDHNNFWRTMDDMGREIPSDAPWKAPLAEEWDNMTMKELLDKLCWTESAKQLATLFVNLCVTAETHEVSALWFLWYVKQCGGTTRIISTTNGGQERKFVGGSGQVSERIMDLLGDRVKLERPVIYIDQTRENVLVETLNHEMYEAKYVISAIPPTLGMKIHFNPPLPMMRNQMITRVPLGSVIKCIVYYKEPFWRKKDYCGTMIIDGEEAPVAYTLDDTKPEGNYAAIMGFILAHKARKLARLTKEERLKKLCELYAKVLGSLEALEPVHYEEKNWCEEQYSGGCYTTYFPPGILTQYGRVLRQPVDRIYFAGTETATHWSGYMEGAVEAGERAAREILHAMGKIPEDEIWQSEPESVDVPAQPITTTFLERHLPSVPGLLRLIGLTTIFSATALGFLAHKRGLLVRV

For `Cn1ncc2cc(C(=O)Nc3ccc(Cl)c(Cl)c3)ccc21`, the “inhibition (INH)” value in data set [1] was “Active”. For the same compound, the Ki in data set [2] stood at 0.22 nM.

These data come from ChEMBL document CHEMBL4351013, “Carboxamides vs. methanimines: Crystal structures, binding interactions, photophysical studies, and biological evaluation of (indazole-5-yl)methanimines as monoamine oxidase B and acetylcholinesterase inhibitors” (Eur J Med Chem, 2019).
